## Ab-14 heavy chain CDR variants: yeast mating affinities

Reference: Li et al. 2023, doi:10.1038/s41467-023-39022-2. File: FLAb, binding data.

The target is the same throughout: PDVDLGDISGINAS, from the HR2 region of SARS-CoV-2 spike.

Parent scFv Ab-14: VH joined to VL by the linker GGGGSGGGGSGGGGS. Changes lie in the heavy chain CDRs alone.
VH: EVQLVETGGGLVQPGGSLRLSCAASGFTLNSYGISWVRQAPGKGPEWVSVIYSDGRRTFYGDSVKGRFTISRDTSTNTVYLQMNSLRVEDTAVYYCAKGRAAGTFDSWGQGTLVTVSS
VL: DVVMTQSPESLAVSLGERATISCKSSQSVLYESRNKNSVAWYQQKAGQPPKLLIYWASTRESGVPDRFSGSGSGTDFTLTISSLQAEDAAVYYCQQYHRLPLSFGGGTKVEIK

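The parent was found by panning a naive human phage display library on the peptide. Designed CDR sequences, proposed from the first random library and measured here. Group labels follow the data file (Ctrl: baseline library sampled from a position-specific scoring matrix, with some repeated check sequences; Rand: our label for a block that the file lists under HC and that is probably the random mutants of the ten best first-round binders; En: ensemble of fine-tuned language models; GP: Gaussian process model; GPLM: also part of the Gaussian process libraries; HC: hill climbing; Gen: genetic algorithm; Gibbs: Gibbs sampling; a sequence that several methods proposed may carry one label only). The scFvs were displayed on barcoded MATa yeast, the peptide on MATalpha yeast. The frequency of each diploid, read from paired DNA barcodes, reflects how well the two displayed proteins bind. Each replicate has its own calibration line, from reference interactions of the BCL2 family. Mating was done six times.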

Each variant is given by its three heavy chain CDRs, as the data file delimits them; those of the parent are GFTLNSYGIS, VIYSDGRRTFYGDSVK, GRAAGTFDS.
Values are log10 of the apparent Kd in nM; lower means stronger binding.
Averages over replicates are reported, and they cover detected replicates only.
"nd" marks a missing value. The strain was present, yet no cells mated with the target were sequenced in any replicate, which points to weak or no binding.
Three control strains display no target. For all heavy chain designs, 1% of the pairings with them gave a signal, with a median of 2.08 and one signal in twenty below 0.84, so weak values seen in few replicates may be background. Also given: how often the same scFv was detected with the empty control strains.
The authors' rule: three or more of the six replicates give a measured affinity, fewer mean a poor binder.
A sequence measured in both rounds can read differently, since the two assays cover different ranges.
Of ten entries with the parent sequence, four were seen in most replicates (averages 0.34 to 2.37), three in one and three in none, so single entries are noisy.

CDR-H1	CDR-H2	CDR-H3	group	log10 Kd (nM), mean	replicates with signal	empty controls
GFDLDEYGIS	VIYADGVRTVYADSVK	GNVAGTFDV	En_Gen	-0.12	5/6	0/18
GFDVDEYGIS	VIYADGSRVAILESVK	GKIAGTFDE	En_Gibbs	nd	0/6	0/18
GFTLTDNGIS	VIYSRGRRTFYGDSVK	GRSALTFIS	Rand	nd	0/6	1/18
GFSLNWYGIS	VIYSDGRRTFYIDSVK	GQAAGTFDS	GPLM_Gen	nd	0/6	0/18
GFELESYGIS	VIYSDGRRTFYADSVK	GRTAGTFDS	GPLM_Gen	0.32	6/6	0/18
GFTYNSYGIS	VIYADGRRTFYGDSVK	GRAAGTNKS	Rand	nd	0/6	0/18
GKNLDEYGIS	VIYADGKRTAYADSVK	NSVMSGRVT	En_Gibbs	1.72	1/6	0/18
GFTLNSYGIS	VIYSDGRRTAYGDKVK	GRAAGTFDS	Ctrl	1.42	6/6	0/18
GFDLNEYGIS	VIYADGRRTFYKDSVK	GGNGGTFDV	En_HC	0.16	6/6	0/18
GFDLNEYGIS	VIYADGKRTAYADSVK	GEVAGTFDQ	En_Gen	-2.18	6/6	0/18
GFDLEDYGIS	VIYADGRRTAYSDSVK	GNVAGTFDV	En_Gen	-0.36	6/6	0/18
KFSLNSYGIS	VIYSDGRRTFYKDSVK	GRTAGTFDS	GPLM_Gibbs	1.46	6/6	0/18
GFWLNSYGIS	VIYADGRRTFYGDSVK	GKAAGTFDS	GPLM_Gen	0.93	6/6	2/18
GFSLNEYGIS	VIYADGRRTFYADSVK	GNQAGTFDQ	En_HC	-0.48	6/6	1/18
GFDINEYGIS	VIYADGVRTFYADSVK	GNQAGTFDL	En_HC	-0.28	4/6	0/18
GFTLNEYGIS	VIYSDGRRTFYGDSVK	GRTAGTFYS	GP_HC	nd	0/6	1/18
GFTLNEYWIS	VIYSDGRRTFYGDSVK	GRAAVTFDQ	Rand	nd	0/6	0/18
GRTLNSYGIS	VIYSDGERTFYEDSVR	GRAAGTFDS	Ctrl	nd	0/6	0/18
GFHLNSYGIS	VIYSDGRRTFYHDSVK	GQEAGTFDS	GP_Gibbs	0.63	6/6	0/18
GFDLDEYGIS	VIYADGMRTFYTDSVK	GNVAGTFDL	En_Gen	-1.35	6/6	0/18
GFTLNSYGIS	VIYSDGRRTFYGDNVK	GNEAGTFDT	GP_Gibbs	-0.25	6/6	0/18
GITLNSYGIS	VIYADGRRTFYGDSVK	GTAAGTFIS	Ctrl	nd	0/6	0/18
GFSLNEYGIS	VIYSDGRRTFYGDSVK	GRKAGTFDS	GPLM_Gen	1.40	6/6	0/18
GNTLNEYGIS	VIYSDGRRTFYTDSVK	GRSAGTFDS	GP_HC	1.62	6/6	0/18
GFDLNEYGIS	VIYADGMRTVYADSVK	GETAGTFDI	En_Gen	-0.60	6/6	1/18
GFDLNEYGIS	VIYADGQRTYYADSVK	GNVAGTFDQ	En_Gen	-0.50	6/6	0/18
GFTLNEYGIS	VIYSDGRRTFYGDSVK	GRTAGTFDM	GPLM_Gen	0.11	6/6	1/18
GFDLNEYGIS	VIYADGHRTKYQNSVK	GGQADFALL	En_Gibbs	nd	0/6	0/18
GFELNSYGIS	VIYSDGRRTFYVDSVK	GRTAGTFDT	GP_Gen	1.04	6/6	0/18
GFDLNEYGIS	VIYADGKRTFYSDSVK	GNAGGTFDV	En_HC	0.37	6/6	0/18
GFDLNSYGIS	VIYSDGRRTFYQDMVK	GREAGTFDS	GP_Gibbs	2.15	5/6	2/18
GFTINSYGIS	VIYSWGRRTFYGDSVK	GRAAGTFDS	Ctrl	nd	0/6	0/18
GFNLNSYGIS	VIYSDGRRTFYGDSVK	GRTAGTFDA	GPLM_Gibbs	0.95	5/6	0/18
GFDLNEYGIS	VIYADGVRTAYADNVK	GENAGTFDI	En_Gen	-0.11	6/6	0/18
GFDLDEYGIS	VIYADGMRTAYADDVK	GENAGTFDL	En_Gen	nd	0/6	1/18
TFTLNSYGIS	VIYSDGRRTFYGDSVK	GRAAGTFNS	Ctrl	nd	0/6	0/18
GFNLNSYGIS	VIYSDGRRTFYVDSVK	GRVAGTFDS	GPLM_Gibbs	1.24	6/6	1/18
GFDLNEYGIS	VIYADGMRTFYADSVK	GTNAGTFDQ	En_HC	-0.17	6/6	0/18
QFTLNSYGIS	VIYSDGRRTSYGDSVK	GSAAGTFDS	Ctrl	1.76	2/6	0/18
GFTLNSYGIS	VIYSDGKRTFYGDSVK	GRAAGTFDW	Ctrl	-0.62	6/6	0/18
GFGLNEYGIS	VIYSDGRRTFYGDSVK	GTAAGTFDS	GP_Gen	-0.04	6/6	1/18
GFELNDYGIS	VIYSDGRRTFYGDSVK	GKTAGTFDT	GP_Gibbs	-0.19	6/6	0/18
GFDLNSYGIS	VIYSDGKRTFYIDSVK	GRAAGTFDS	GPLM_Gibbs	0.41	6/6	0/18
GFTLNAYGIS	VIYADGRRTFYGDSVK	GRAAGTNKS	Rand	1.67	1/6	1/18
GFDINEYGIS	VIYADGRRTFYADSVK	GTNAGTFDS	En_HC	-0.03	6/6	0/18
GFDLNEYGIS	VIYADGMRTAYADSVK	GNNAGTFDV	En_Gen	-0.05	6/6	0/18
GFDLNSYGIS	VIYSDGRRTFYSDSVK	GKAAGTFDV	GP_Gen	0.71	6/6	0/18
GFDLNEYGIS	VIYADGMRTAYADSVK	GNNAGTFDQ	En_Gen	-0.10	5/6	0/18
GFDLNEYGIS	VIYADGRRSFYADSVK	GQLAGTFDE	En_HC	-1.04	6/6	0/18
GFTLNQYGIS	VIYSDGMRTFYSDSVK	GRLAGTFDS	GPLM_HC	0.46	6/6	1/18
GFDLDEYGIS	VIYADGMRTVYADSVK	GENAGTFDV	En_Gen	-0.44	6/6	0/18
GFNLNTYGIS	VIYSDGRRTFYGDSVK	GRAAGTFDS	Ctrl	nd	0/6	0/18
GFALNSYGIS	VIYSDGRRTFYMDSVK	GRAYGTFDQ	Ctrl	nd	0/6	0/18
GFTLNSYGIS	VIYADGRRTFYGDSVK	GRAAVTFDS	Ctrl	1.63	1/6	0/18
GFTLNSYGIS	VIYSDGRRTFYADSVK	GKVAGTFDT	GPLM_Gibbs	0.55	6/6	1/18
GFTLNSYGIS	VIYSDGRRTFYGDSVK	GRVAGTFDQ	GPLM_Gen	-1.23	4/6	0/18
GFELNSYGIS	VIYSDGRRTFYSDSVK	GREAGTFDT	GP_Gen	-0.39	6/6	0/18
GFKLNSYGIH	VIYADGQRTFYGDSVK	GRVAGTFDT	Ctrl	0.01	6/6	0/18
GFDLDEYGIS	VIYADGRRTFYTDSVK	GSNAGTFLM	En_HC	2.95	4/6	1/18
GFELNSYGIS	VIYSDGRRTFYGDQVK	GREAGTFDT	GP_Gibbs	0.03	6/6	0/18
GETLNQYGIW	VIYSDGRRTFYSDSQK	GRAAGFFDS	Rand	1.66	1/6	0/18
GFNLNSYGIS	VIYSDGRRTFYADSVK	GQAAGTFDS	GPLM_Gen	-0.18	6/6	0/18
GFDLNEYGIS	VIYADGRRTFYTDSVK	GAEAGTFDQ	En_HC	-0.57	6/6	0/18
GFSLNEYGIS	VIYSDGRRTFYHDSVK	GKAAGTFDS	GPLM_Gibbs	0.57	5/6	0/18
GFNLNSYGIS	VIYSDGHRTFYGDAVK	GRASGTFSS	Ctrl	-0.13	4/6	0/18
GFDLNEYGIS	VIYADGMRTFYTDSVK	GEFAGTFDT	En_HC	-0.07	6/6	0/18
GFDLNEYGIS	VIYADGVRTAYTDSVK	GNQAGTFDM	En_Gen	0.67	6/6	0/18
GFDLNEYGIS	VIYADGMRTSYADSVK	GENAGTFDT	En_Gen	0.32	6/6	0/18
GFNLDEYGIS	VIYADGRRNAYRDKVK	GAHDFDLKT	En_Gibbs	nd	0/6	0/18